According to ChEMBL document CHEMBL5634145, “Discovery of novel amidobenzimidazole derivatives as orally available small molecule modulators of stimulator of interferon genes for cancer immunotherapy” (Eur J Med Chem, 2023):

Legend:
[1] = target: T1, Stimulator of interferon genes protein (Mus musculus) (UniProt Q3TBT3); assay: Agonist activity at STING in mouse RAW264.7 cells assessed as increase in IFN-beta level incubated for 24 hrs by ELISA; type: cell-based; conditions: filed as agonist, dose 12.5-80 µM
T1 sequence (whole entry): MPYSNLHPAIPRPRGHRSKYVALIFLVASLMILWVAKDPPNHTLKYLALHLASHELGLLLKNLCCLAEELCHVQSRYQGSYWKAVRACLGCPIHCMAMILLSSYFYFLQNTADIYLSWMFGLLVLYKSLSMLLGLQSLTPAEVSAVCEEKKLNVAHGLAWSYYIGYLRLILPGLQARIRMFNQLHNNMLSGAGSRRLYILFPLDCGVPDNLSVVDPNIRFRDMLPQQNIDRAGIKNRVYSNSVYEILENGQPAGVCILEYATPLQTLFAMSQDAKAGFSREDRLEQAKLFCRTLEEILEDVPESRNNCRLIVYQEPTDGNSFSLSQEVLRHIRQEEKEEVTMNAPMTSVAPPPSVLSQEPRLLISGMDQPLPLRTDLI

[2] = target: T1, Stimulator of interferon genes protein (Mus musculus); assay: Competitive binding affinity to 6xHis-tagged wild type mouse STING in presence of d2-labeled STING ligand by HTRF method; conditions: filed as agonist, dose 0.01-100 µM
[3] = target: T1, Stimulator of interferon genes protein (Mus musculus); assay: Agonist activity at STING in mouse RAW264.7 cells assessed as increase in IP-10 level incubated for 24 hrs by ELISA; type: cell-based; conditions: filed as agonist, dose 12.5-80 µM

Activity [1]: Dose-Dependent Effect
Activity [2]: Dose-Dependent Effect
Activity [3]: Dose-Dependent Effect
SMILES: Cc1ncccc1C(=O)Nc1nc2cc(C(N)=O)ccc2n1CCCCNC(=O)OC(C)(C)C
